Data on 3 compounds can be found in ChEMBL document CHEMBL4196118, “Discovery of MK-8318, a Potent and Selective CRTh2 Receptor Antagonist for the Treatment of Asthma” (ACS Med Chem Lett, 2018).

The Ki is a measure of affinity in units of concentration, obtained from inhibition or displacement. The low end stands for tighter binding, the high end for weaker binding. As usually defined, the IC50 is the midpoint of a concentration-inhibition curve.

In test [1] the target is T1, Prostaglandin D2 receptor 2 (Homo sapiens, UniProt Q9Y5Y4).
T1 sequence (Q9Y5Y4 whole entry): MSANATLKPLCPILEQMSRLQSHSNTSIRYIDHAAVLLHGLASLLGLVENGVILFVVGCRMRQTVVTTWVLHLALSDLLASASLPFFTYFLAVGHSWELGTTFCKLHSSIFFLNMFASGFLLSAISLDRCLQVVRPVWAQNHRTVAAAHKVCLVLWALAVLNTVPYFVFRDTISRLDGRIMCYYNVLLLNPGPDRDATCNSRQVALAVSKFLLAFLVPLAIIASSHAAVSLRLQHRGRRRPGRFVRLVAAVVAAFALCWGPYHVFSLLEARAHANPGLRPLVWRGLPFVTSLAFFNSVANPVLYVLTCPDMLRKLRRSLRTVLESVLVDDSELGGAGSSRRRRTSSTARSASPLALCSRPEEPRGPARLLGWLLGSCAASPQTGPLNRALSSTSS
The test can be described thus: biochemical.

Test [2] deals with T1, Prostaglandin D2 receptor 2.
Test [3] shares this target. This is another data set of the same source.

In test [1], `O=C(O)CCC(=O)N(C1CC1)[C@H]1c2ccc(F)cc2N(C(=O)c2ccc(OC(F)(F)F)cc2)[C@H]2CCC[C@H]21` showed a Ki of 3 nM.

For `O=C(O)CCC(=O)N(C1CC1)[C@H]1c2cc(CO)ccc2N(C(=O)c2ccc(OC(F)(F)F)cc2)[C@H]2CCC[C@H]21`, affinity in test [1] was put at a Ki of 38 nM.

Turning to `O=C(O)CCC(=O)N(C1CC1)[C@H]1c2ccccc2N(C(=O)c2ccc(OC(F)(F)F)cc2)[C@H]2CC[C@H]21`, the IC50 in test [2] came to 24 nM; in test [3], 7 nM.
